The values below come from PubChem BioAssay AID1851 (National Center for Advancing Translational Sciences (NCATS), 2009).

Protein sequences, listed by entry. Tags and fused reporters are not part of them.
UniProt P08684, whole entry, looked up: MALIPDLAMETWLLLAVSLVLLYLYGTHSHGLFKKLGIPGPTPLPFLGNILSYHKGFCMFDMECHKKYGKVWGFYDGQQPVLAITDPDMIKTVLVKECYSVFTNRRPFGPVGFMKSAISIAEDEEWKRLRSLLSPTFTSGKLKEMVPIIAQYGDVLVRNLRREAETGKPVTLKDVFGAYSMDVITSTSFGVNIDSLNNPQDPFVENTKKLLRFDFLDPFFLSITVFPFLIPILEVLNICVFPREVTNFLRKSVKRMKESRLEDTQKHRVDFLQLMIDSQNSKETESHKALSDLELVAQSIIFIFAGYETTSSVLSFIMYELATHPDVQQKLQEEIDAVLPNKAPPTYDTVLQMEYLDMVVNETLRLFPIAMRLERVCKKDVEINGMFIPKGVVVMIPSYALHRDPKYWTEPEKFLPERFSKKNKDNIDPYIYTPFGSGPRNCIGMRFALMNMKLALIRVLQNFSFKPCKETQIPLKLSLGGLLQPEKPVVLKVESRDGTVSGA

SMILES strings stand for the structures. This list holds what a sample rich in hits left over. Records with an inconclusive call do not appear. Active and inactive are the calls of the source. Calls follow the shape of the dose curve; as a rule, active = well fitted curve in the direction sought with a large enough effect; inconclusive = small, poorly fitted or top-dose-only effect, or effect the other way; inactive = no such curve, though single readings can be large or run the other way.
% is scaled to controls: 0 for no effect and ±100 for the full control effect.

In this experiment the target is Cytochrome P450 3A4 (Homo sapiens) (UniProt P08684). The experiment can be described thus: Cytochrome panel assay with activity outcomes. The settings on record: recombinant CYP, pro-luciferin dealkylation, luminescence, p450-cyp3a4; at 11.4 µM (top of the series).
Consider `CN(CCC(=O)O)C1=Nc2ccc(Cl)cc2C(c2ccccc2)=[N+]([O-])C1`, for which the activity, negative = inhibition was inactive: 4.39%.
